What is called CC50 is the concentration that lowers cell viability or growth by half. The low end stands for greater toxicity to the cells, the high end for lower toxicity to the cells.

Among the data in patent US20130085133A1, “ANTI-VIRAL TREATMENT AND ASSAY TO SCREENFOR ANTI-VIRAL AGENT” (Sourthern Research Institute Office of Commercialization …, priority 2010, published 2013) are CC50 values, retold here.

The structures appear in SMILES notation.

A short description of the data set: cytotoxicity assay (percent viability of HEp-2 cells, Cell Titer-Glo). To be noted: human. On the technique in general: Cellular ATP, detected with luciferase, serves as a proxy for viable cell number.

`COc1ccc(-c2cn3cccnc3n2)cc1` [AB00288908]: the CC50 at 6 days was > 25 µg/mL.
